One substance from publication PMC7949113 can be followed below.

Amino acid sequences for entries named in this document (tags omitted). Residues count along the entry.
UniProt P61073, whole entry: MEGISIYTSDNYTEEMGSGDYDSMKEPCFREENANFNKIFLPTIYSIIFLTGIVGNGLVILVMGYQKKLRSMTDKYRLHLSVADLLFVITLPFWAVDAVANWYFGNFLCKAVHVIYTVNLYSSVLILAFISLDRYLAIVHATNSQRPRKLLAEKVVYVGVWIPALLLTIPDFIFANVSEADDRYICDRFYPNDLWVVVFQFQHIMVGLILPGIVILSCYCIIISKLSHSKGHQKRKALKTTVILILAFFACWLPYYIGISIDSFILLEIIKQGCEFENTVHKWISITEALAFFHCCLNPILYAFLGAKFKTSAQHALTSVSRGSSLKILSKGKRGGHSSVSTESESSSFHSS
UniProt P48061, 22-89: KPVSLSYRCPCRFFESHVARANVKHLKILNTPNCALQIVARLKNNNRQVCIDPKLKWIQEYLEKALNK

In the experiment the target is chemokine receptor CXCR4 (human (endogenous in DU145, PC3 and HEK293)) (UniProt P61073).

As to “stromal cell-derived factor 1α (from UniProt P48061-2 22-89) (ligand)”, the EC50 of ERK1/2 activation (phospho-ERK1/2 Western blot) by SDF1α, 5 min, DU145 cells is 3.5 nM; the EC50 of ERK1/2 activation (phospho-ERK1/2 Western blot) by SDF1α, 5 min, HEK293 cells stood at 5.8 nM; the EC50 of ERK1/2 activation (phospho-ERK1/2 Western blot) by SDF1α, 5 min, PC3 cells stood at 6.3 nM.
